From ChEMBL document CHEMBL5705890, “Antitumor activity of an allosteric inhibitor of centromere-associated protein-E” (Proc Natl Acad Sci U S A, 2010)

How the values were obtained:
COLO 201 = test: Anticancer activity against human COLO201 cells assessed as cell doubling measured for 72 hrs by DAPI staining based analysis; type: functional
KM12 = test: Anticancer activity against human KM12 cells assessed as cell doubling measured for 72 hrs by DAPI staining based analysis; type: functional

CC(C)Oc1ccc(C(=O)N[C@H](CNC(=O)CN(C)C)Cc2ccc(-c3cn4cccc([C@H](C)O)c4n3)cc2)cc1Cl [GSK-923295A]
Activity (COLO 201): 3.09 | Activity (KM12): 3.1
